Measured values published in patent publication US12383579B2, “Materials and methods of using an inhibitor of plasminogen activation to treat anastomotic leak” (THE UNIVERSITY OF CHICAGO, priority 2018, dated 2025).

Tested on: E. faecalis V583-induced AL
Conditions: non-leaking mice, TXA versus vehicle, POD 8

Question: NC[C@H]1CC[C@H](C(=O)O)CC1 [TXA, tranexamic acid] was tested. Which “hematoxylin and eosin staining: mucosal healing, inflammatory infiltrate” value did it give?
Answer: no discernible difference in mucosal healing or inflammatory infiltrate
